Laboratory results from patent publication US8617607B2, “Sustained release formulations of psychoactive drugs” (TYRX, Inc., priority 2008, dated 2013).

Details: 0.1% solution, PBS, 37° C.

SMILES: Cc1cc2c(s1)Nc1ccccc1N=C2N1CCN(C)CC1 [Olanzapine, 2-methyl-4-(4-methyl-1-piperazinyl)-10H-thieno[2,3-b][1,5]benzodiazepine]
- stability of olanzapine: very stable
